Data taken from PubChem BioAssay (NCI).
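Where inhibition never reached the appropriate level, the endpoint shown equals the highest concentration tested. Otherwise, values were interpolated linearly from a five-concentration, 48-hour dose response in 96-well plates. The concentration for 50% growth inhibition is given as GI50. Definition used: TGI = concentration required for complete inhibition of growth.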

Assays:
Experiment in all cases: NCI tumour cell line growth inhibition, 48 h
[1] = system: 786-0 renal
[2] = system: A498 renal
[3] = system: A549 NSCLC
[4] = system: ACHN renal
[5] = system: BT-549 breast
[6] = system: CAKI-1 renal
[7] = system: CCRF-CEM leukemia
[8] = system: COLO 205 colon
[9] = system: DU-145 prostate
[10] = system: EKVX NSCLC
[11] = system: HCC-2998 colon
[12] = system: HCT-116 colon
[13] = system: HCT-15 colon
[14] = system: HL-60(TB) leukemia
[15] = system: HOP-62 NSCLC
[16] = system: HOP-92 NSCLC
[17] = system: HS 578T breast
[18] = system: HT29 colon
[19] = system: IGROV1 ovarian
[20] = system: K-562 leukemia
[21] = system: KM12 colon
[22] = system: LOX IMVI melanoma
[23] = system: M14 melanoma
[24] = system: MALME-3M melanoma
[25] = system: MCF7 breast
[26] = system: MDA-MB-231 breast
[27] = system: MDA-MB-435
[28] = system: MDA-N
[29] = system: MOLT-4 leukemia
[30] = system: NCI-H226 lung
[31] = system: NCI-H23 lung
[32] = system: NCI-H322M lung
[33] = system: NCI-H460 lung
[34] = system: NCI-H522 lung
[35] = system: NCI/ADR-RES ovarian
[36] = system: OVCAR-3 ovarian
[37] = system: OVCAR-4 ovarian
[38] = system: OVCAR-5 ovarian
[39] = system: OVCAR-8 ovarian
[40] = system: PC-3 prostate
[41] = system: RPMI-8226 leukemia
[42] = system: RXF 393 renal
[43] = system: SF-268 CNS
[44] = system: SF-295 CNS
[45] = system: SF-539 CNS
[46] = system: SK-MEL-2 melanoma
[47] = system: SK-MEL-28 melanoma
[48] = system: SK-MEL-5 melanoma
[49] = system: SK-OV-3 ovarian
[50] = system: SN12C renal
[51] = system: SNB-19 CNS
[52] = system: SNB-75 CNS
[53] = system: SR leukemia
[54] = system: SW-620 colon
[55] = system: T-47D breast
[56] = system: TK-10 renal
[57] = system: U251 CNS
[58] = system: UACC-257 melanoma
[59] = system: UACC-62 melanoma
[60] = system: UO-31 renal

## Fc1cccc(NC2=NCC(CI)S2)c1 (stereo not given)
[1]
  GI50: > 100 µM
  TGI: > 100 µM
[2]
  GI50: 84.3 µM
  TGI: > 100 µM
[3]
  GI50: > 100 µM
  TGI: > 100 µM
[4]
  GI50: > 100 µM
  TGI: > 100 µM
[5]
  GI50: > 100 µM
  TGI: > 100 µM
[6]
  GI50: > 100 µM
  TGI: > 100 µM
[7]
  GI50: 12.2 µM
  TGI: 41.3 µM
[8]
  GI50: > 100 µM
  TGI: > 100 µM
[9]
  GI50: > 100 µM
  TGI: > 100 µM
[10]
  GI50: > 100 µM
  TGI: > 100 µM
[11]
  GI50: > 100 µM
  TGI: > 100 µM
[12]
  GI50: 87.9 µM
  TGI: > 100 µM
[13]
  GI50: 78.6 µM
  TGI: > 100 µM
[14]
  GI50: 13.2 µM
  TGI: 38.2 µM
[15]
  GI50: > 100 µM
  TGI: > 100 µM
[16]
  GI50: > 100 µM
  TGI: > 100 µM
[17]
  GI50: 22.2 µM
  TGI: > 100 µM
[18]
  GI50: 89.4 µM
  TGI: > 100 µM
[19]
  GI50: > 100 µM
  TGI: > 100 µM
[20]
  GI50: 34.4 µM
  TGI: > 100 µM
[21]
  GI50: 39 µM
  TGI: > 100 µM
[22]
  GI50: 56.1 µM
  TGI: > 100 µM
[23]
  GI50: > 100 µM
  TGI: > 100 µM
[24]
  GI50: > 100 µM
  TGI: > 100 µM
[25]
  GI50: 75.9 µM
  TGI: > 100 µM
[26]
  GI50: > 100 µM
  TGI: > 100 µM
[27]
  GI50: > 100 µM
  TGI: > 100 µM
[28]
  GI50: > 100 µM
  TGI: > 100 µM
[29]
  GI50: 16.2 µM
  TGI: 67.1 µM
[30]
  GI50: 74.3 µM
  TGI: > 100 µM
[31]
  GI50: 88.8 µM
  TGI: > 100 µM
[32]
  GI50: > 100 µM
  TGI: > 100 µM
[33]
  GI50: 87.6 µM
  TGI: > 100 µM
[34]
  GI50: 26 µM
  TGI: > 100 µM
[35]
  GI50: 54.6 µM
  TGI: > 100 µM
[36]
  GI50: > 100 µM
  TGI: > 100 µM
[37]
  GI50: 42.6 µM
  TGI: 90.3 µM
[38]
  GI50: > 100 µM
  TGI: > 100 µM
[39]
  GI50: > 100 µM
  TGI: > 100 µM
[40]
  GI50: 59.8 µM
  TGI: > 100 µM
[41]
  GI50: > 100 µM
  TGI: > 100 µM
[42]
  GI50: 84.5 µM
  TGI: > 100 µM
[43]
  GI50: > 100 µM
  TGI: > 100 µM
[44]
  GI50: > 100 µM
  TGI: > 100 µM
[45]
  GI50: > 100 µM
  TGI: > 100 µM
[46]
  GI50: > 100 µM
  TGI: > 100 µM
[47]
  GI50: > 100 µM
  TGI: > 100 µM
[48]
  GI50: > 100 µM
  TGI: > 100 µM
[49]
  GI50: > 100 µM
  TGI: > 100 µM
[50]
  GI50: > 100 µM
  TGI: > 100 µM
[51]
  GI50: > 100 µM
  TGI: > 100 µM
[52]
  GI50: 27.1 µM
  TGI: > 100 µM
[53]
  GI50: 17.8 µM
  TGI: 73.6 µM
[54]
  GI50: 68.2 µM
  TGI: > 100 µM
[55]
  GI50: 48.9 µM
  TGI: 92 µM
[56]
  GI50: > 100 µM
  TGI: > 100 µM
[57]
  GI50: 90.9 µM
  TGI: > 100 µM
[58]
  GI50: > 100 µM
  TGI: > 100 µM
[59]
  GI50: > 100 µM
  TGI: > 100 µM
[60]
  GI50: 70.4 µM
  TGI: > 100 µM
